Like-named read-outs stand apart in the source and are kept apart here.
Molecular target: Albumin (Homo sapiens, UniProt P02768)
Conditions: adult serum spiked with bilirubin, cefazolin 3.76 mM

Sequences of proteins named here, by UniProt entry; tags and fusion partners are left off. Residues count along the entry.
UniProt P02768, 25-609: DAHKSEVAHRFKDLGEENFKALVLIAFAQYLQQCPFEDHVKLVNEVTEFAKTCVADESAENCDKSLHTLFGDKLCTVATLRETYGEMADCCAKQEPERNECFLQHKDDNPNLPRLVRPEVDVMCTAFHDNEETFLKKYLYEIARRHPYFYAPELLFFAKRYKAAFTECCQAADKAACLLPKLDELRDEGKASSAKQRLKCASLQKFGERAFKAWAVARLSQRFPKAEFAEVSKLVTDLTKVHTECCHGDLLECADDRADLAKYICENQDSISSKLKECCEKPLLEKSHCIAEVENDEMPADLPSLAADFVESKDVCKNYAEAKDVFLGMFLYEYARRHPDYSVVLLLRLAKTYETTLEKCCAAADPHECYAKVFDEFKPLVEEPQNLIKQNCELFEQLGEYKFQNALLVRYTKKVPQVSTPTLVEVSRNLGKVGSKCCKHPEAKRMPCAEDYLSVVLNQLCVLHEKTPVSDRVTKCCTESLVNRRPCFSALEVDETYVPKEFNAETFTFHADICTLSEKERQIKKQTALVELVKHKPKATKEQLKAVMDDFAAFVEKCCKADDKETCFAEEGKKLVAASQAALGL

- UB (Arrows UB2 analyzer (52 fold dilution)): 26.8 nM
- UB (UBCheck (no dilution)): 148.7 nM
SMILES: Cc1nnc(SCC2=C(C(=O)O)N3C(=O)[C@@H](NC(=O)Cn4cnnn4)[C@H]3SC2)s1 [Cefazolin]

Source: US20230053493A1, “ONE STEP METHODS, KITS, AND SYSTEMS FOR THE MEASUREMENT OF CONCENTRATIONS OF UNBOUND BILIRUBIN IN BIOLOGICAL FLUIDS” (priority 2019, published 2023)
